# From patent US20200330467A1, “METHOD AND PHARMACEUTICAL COMPOSITIONS FOR THE TREATMENT OF MULTIPLE MYELOMA” (priority 2016, published 2020)
# System: primary myeloma cells from patients
# Details: co-cultured with bone marrow environment and recombinant IL-6, n=8
# From the text: Results are median values of the numbers of myeloma cells in the culture wells.
structure (smiles),measurement,value
COc1cc2nc(N3CCCC3)nc(NCCCCCN3CCCC3)c2cc1OC [UNC0379],apoptosis of primary myeloma cells,significant apoptosis
